The results in this text go back to PubChem BioAssay AID624467 (The Scripps Research Institute Molecular Screening Center, 2012).

Protein sequences, listed by entry. Tags and fused reporters are not part of them.
UniProt Q96RJ0, whole entry: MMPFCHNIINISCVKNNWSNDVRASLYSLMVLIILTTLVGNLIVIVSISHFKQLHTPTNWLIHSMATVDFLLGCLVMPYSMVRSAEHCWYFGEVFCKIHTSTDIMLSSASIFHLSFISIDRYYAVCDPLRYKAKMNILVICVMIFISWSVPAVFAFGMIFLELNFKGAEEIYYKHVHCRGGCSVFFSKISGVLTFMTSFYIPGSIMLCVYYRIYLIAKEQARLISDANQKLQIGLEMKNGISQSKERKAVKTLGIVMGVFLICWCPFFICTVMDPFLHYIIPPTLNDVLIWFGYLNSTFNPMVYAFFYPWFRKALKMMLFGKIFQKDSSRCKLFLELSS

The entries are a selection whose mix differs from that of the whole data set. The source made the active and inactive calls.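 Rule for the calls: active = activation above the mean activation of all test compounds in the run plus 3 SD (cut at about 38% in these data); inactive = the rest.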

The target in the experiment is Trace amine-associated receptor 1 (Homo sapiens) (UniProt Q96RJ0). Nature of the experiment: activators of TAAR1 calcium mobilization – Fluo-8 calcium fluorescence, CHO RD-HGA16 cells, primary screen (AID 624467). The conditions noted are these: CHO RD-HGA16 TAAR1, Fluo-8 calcium fluorescence; at 3 µM; active compounds read high; vehicle wells 0%, saturating PEA agonist 100%.
As to `CCCCn1nnnc1C(c1cccc2ccccc12)N1CCC(n2c(=O)[nH]c3ccccc32)CC1` (stereo unspecified), the activation was inactive: 1.73%.

As to `CN1CCN(CCOC(=O)C(O)(c2ccccc2)c2ccccc2)CC1`, the activation was inactive: 1.25%.

On to `CC(C)c1ccc(C(=O)NCC2(N3CCOCC3)CCCCC2)cc1`, for which the activation is inactive: -1.5%.

Consider `COc1ccc(NC2CCN(C(=O)OC(C)(C)C)CC2)cc1`, for which the activation was inactive: 4.84%.

As to `COc1cc(C(=O)NCC2(N3CCCCC3)CCCCC2)ccc1OC(F)F`, the activation is inactive: 1.44%.

As to `O=C(NCC1(N2CCOCC2)CCCCC1)c1cc(=O)[nH]c2ccccc12`, the activation was inactive: 0.66%.

Turning to `O=C(NCC1(N2CCCCC2)CCCCC1)c1ccc(OC(F)F)cc1`, the activation is inactive: -2.22%.

On to `CC(C)(C)n1nnnc1C(c1ccccc1OC(F)(F)F)N1CCC(n2c(=O)[nH]c3ccccc32)CC1` (stereo unspecified), for which the activation is inactive: 5.17%.

Turning to `CSc1ccc(C(=O)NCC2(N3CCOCC3)CCCCC2)cc1`, the activation is inactive: -0.17%.

Turning to `O=C(NCC1(N2CCCCC2)CCCCC1)c1cccc([N+](=O)[O-])c1`, the activation was inactive: -0.97%.

Turning to `N#CC1(Nc2ccccc2)CCN(CCc2ccccc2)CC1`, the activation is inactive: 2.28%.

On to `O=c1[nH]c2ccccc2n1C1CCN(C(c2ccccc2OC(F)(F)F)c2nnnn2C2CCCC2)CC1` (stereo unspecified), for which the activation was inactive: -0.24%.

As to `CCN1CCC(Nc2ccc(Cl)cc2)CC1`, the activation was inactive: 2.59%.

`O=c1[nH]c2ccccc2n1C1CCN(C(c2ccccc2)c2nnnn2C2CCCCC2)CC1` (stereo unspecified): the activation was inactive: 30.5%.

With `O=c1[nH]c2ccccc2n1C1CCN(C(c2cccc3ccccc23)c2nnnn2C2CCCC2)CC1` (stereo unspecified), the activation was inactive: 0.05%.

With `COc1cc(C(=O)NCC2(N(C)C)CCCCC2)ccc1OC(F)F`, the activation was inactive: 12.9%.

Turning to `CCOC(=O)N1CCC(Nc2cccc(C)c2)CC1`, the activation was inactive: 6.97%.

With `CCOc1ccc(C)cc1CN(CCCl)CCCl`, the activation is inactive: -0.68%.

As to `O=C1CCN(Cc2ccccc2)CC1`, the activation was inactive: 0.88%.

Turning to `CC(C)(C)n1nnnc1C(c1ccccc1)N1CCC(n2c(=O)[nH]c3ccccc32)CC1` (stereo unspecified), the activation is inactive: 11.5%.

As to `COc1ccc(NC2CCN(CCc3ccccc3)CC2)c(OC)c1`, the activation is inactive: 9.38%.

On to `CCOC(=O)N1CCC(Nc2ccc(F)cc2)CC1`, for which the activation is inactive: -1.39%.

In the case of `O=C(NCC1(N2CCCCC2)CCCCC1)c1ccc(F)cc1`, the activation is inactive: -2.38%.

Consider `O=P1(N(CCCl)CCCl)SCCCS1`, for which the activation was inactive: 0.18%.

`CCCCn1nnnc1C(c1cc2ccccc2o1)N1CCC(n2c(=O)[nH]c3ccccc32)CC1` (stereo unspecified): the activation was inactive: 3.56%.

`CCCCOc1ccc(C(=O)NCC2(N3CCOCC3)CCCCC2)cc1`: the activation was inactive: -1.69%.
